# PubChem BioAssay AID720553 (National Center for Advancing Translational Sciences (NCATS), 2013)
# Only a part is listed here, and it is no random draw. Calls of active or inactive are those of the source.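 How the source made its calls: active means maximum activity change below -70%; inconclusive means maximum activity change from -70% to -50%; inactive means maximum activity change above -50%.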
# System: Potassium voltage-gated channel subfamily H member 2, brain isoform KCNH2 3.1 (human)
# Assay: qHTS for Inhibitors of KCHN2 3.1: Mutant qHTS
# Details: U2OS KCNH2 3.1, thallium flux FluxOr; active compounds read low
# Description: Many antipsychotic drugs that inhibit the neurotransmitter dopamine also bind to hERG1 channel which might help explain their antipsychotic activity but also produces cardiac side effects. The discovery of the novel KCNH2 3.1 isoform offers a potential new target for the development of antipsychotic drugs without cardiac side effects. This proposal will use a high throughput thallium flux assay developed for KCNH2 to screen compounds that modulate the activity of KCNH2 3.1. The wild type KCNH2 channel will also be screened in parallel to help define the selective modulators of this KCNH2 3.1 potassium channel. The resulting compounds will be validated in electrophysiology experiments. The availability of animal models will allow future testing in vivo for effects on memory and other aspects of animal physiology linked with psychosis. NIH Chemical Genomics Center [NCGC] NIH Molecular Libraries Probe Centers Network [MLPCN] MLPCN Grant: MH096539 Assay Submitter (PI): James Barrow, Johns Hopkins University, Lieber Institute for Brain Development
# U2OS cells were resuspended in cell media containing 10% fetal calf serum (FCS) at a concentration of 2 million cells / mL. […] A stimulation buffer was added to the plate and the second kinetic read (2 min) was obtained. The rate constant was calculated from the kinetic reads and normalized to the positive and negative DMSO controls.
# On the % scale 0 is the no-effect control and ±100 the full control effect.
row,Structure (SMILES),activity change
1,CCC(=O)N(c1ccccc1)C1(COC)CCN(CCn2nnn(CC)c2=O)CC1,inactive: 3.81%
